Laboratory results: patent publication US5434132A, “Neuropeptide antagonists” (Imperial Cancer Research Technology, Ltd., priority 1988, dated 1995)

Chains of the proteins cited; added tags and fusions are not shown. Lines headed by an entry give the natural chain unless they say otherwise; changes in a name come on top.
UniProt P21729: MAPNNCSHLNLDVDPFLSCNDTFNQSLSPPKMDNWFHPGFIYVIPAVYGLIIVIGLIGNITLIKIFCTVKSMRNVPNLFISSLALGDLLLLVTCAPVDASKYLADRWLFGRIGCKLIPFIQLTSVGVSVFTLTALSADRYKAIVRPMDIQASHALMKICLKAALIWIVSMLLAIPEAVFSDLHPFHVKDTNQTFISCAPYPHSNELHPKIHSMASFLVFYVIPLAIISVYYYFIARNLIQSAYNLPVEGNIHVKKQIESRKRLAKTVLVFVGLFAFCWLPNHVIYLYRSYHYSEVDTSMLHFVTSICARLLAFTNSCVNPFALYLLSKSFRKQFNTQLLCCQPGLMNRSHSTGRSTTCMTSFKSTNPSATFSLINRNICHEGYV

What was measured:
[1] = biological target: T1, bombesin/GRP receptor (Mus musculus, UniProt P21729); assay: 125I-GRP binding to membrane preparations of Swiss 3T3 cells; set-up: species or system murine; details: addition at 1μM; 0.5 nM 125I-GRP, 37° C., 10 minutes; None 305 ± 9; mean±SEM, n=3
T1 construct: Membrane protein (150 μg) prepared from Swiss 3T3 cells as described above; endogenous in cells; host or cells: Swiss 3T3 cells; membrane-enriched fraction prepared with 5 mM Mg2+
Procedure: Membrane preparation: Cultures in roller bottles were washed twice with 150 ml phosphate buffered saline (PBS) (0.14M NaCl, 5 mM KCl, 0.01M Na2 HPO4, 1.8 mM KH2 PO4; pH 7.2) at room temperature. The cells were then harvested at 4° C. by scraping into ice cold PBS containing 5 mM MgCl2, 1 mM [ethylenebis(oxyethylenenitrilo)]tetraacetic acid (EGTA), 1 mg/ml bacitracin, 10 ug/ml aprotonin, 1 mg/ml soybean trypsin inhibitor and 50 μM phenylmethylsulphonyl fluoride. All subsequent steps were carried out at 4° C. […]
The binding reactions were terminated at the specified times by rapid filtration on GF/B glass fibre filters (Whatmann, 1.0 μm pore size). […] Radioactivity was determined with a Beckmann γ-counter.
When 1n[(Beq - Bt)/(BoLo - Beq Bt)]is plotted as a function of time k1 can be determined from the slope by the following relation k1 =slope x [Beg/(Beg^2 - BoLo)](36) where Bo and Lo are the initial concentrations of receptor and ligand respectively. […]
The first order rate constant of dissociation was determined from the slope of the line obtained by plotting ln(Bt/Beg) as a function of time.
The reactions were terminated and specific binding determined as described in "Experimental Procedures".

[2] = biological target: T2, Mr 75,000-85,000 protein (Mus musculus, UniProt P21729); assay: Chemical cross-linking (EGS) of 125I-GRP to the Mr 75,000-85,000 protein in Swiss 3T3 membranes; assay type: binding, murine; details: 10 min, addition at 10 μM, 0.5 nM 125I-GRP, 37° C., None 100, read-out: 125I-GRP affinity labelling of the Mr 75,000-85,000 protein
T2 construct: Membrane protein (150 μg) prepared from Swiss 3T3 cells as described above; endogenous in cells; host or cells: Swiss 3T3 cells; membrane-enriched fraction prepared with 5 mM Mg2+
Procedure: BSA was omitted from all solutions used in the cross-linking studies. At the end of the incubation the membranes were centrifuged at 1000 rpm for 1 minute in a MSE microfuge at room n temperature. The pellets were then resuspended in cross-linking medium containing 4 mM of the cross-linking reagent (EGS) and incubated at 37° C. or 15° C. for 5 minutes or 15 minutes respectively. The reaction was terminated by centrifugation for 1 minute followed by one wash with cross-linking medium and centrifugation. Samples were solubilised in 0.20 ml of 2× sample buffer, (0.2 M Tris-HCl pH 6.8, 10% (w/v) glycerol, 6% sodium dodecyl sulphate (SDS) (w/v), 4% β-mercaptoethanol (v/v), and 2 mM EDTA), immediately heated to 100° C. for 10 minutes and analysed by one dimensional electrophoresis.
SDS-Polyacrylaaide Gel glectrophoresis: Slab gel electrophoresis was performed using 8% acrylamide in the separating gel and 4% in the stacking gel and 0.1% SDS (37). After electrophoresis gels were stained, desrained and dried down onto paper for autoradiography with Fuji x-ray film. Dried gels were exposed for 2-4 days at -70° C. Autoradiograms were scanned using an LKB ultrascan XL densitometer; and the incorporation of radioactivity into the Mr 75,000-85,000 band was quantified using the Ultroscan XL internal digital integrator. […]

For CSCC[C@H](NC(=O)[C@H](CCCCN)NC(=O)[C@@H](NC(=O)[C@H](CC(C)C)NC(=O)[C@@H](NC(=O)[C@@H](NC(=O)CNC(=O)CNC(=O)CNC(=O)[C@H](C)NC(=O)[C@@H]1CCCN1C(=O)[C@H](CC(C)C)NC(=O)[C@@H]1CCCN1C(=O)[C@@H](N)C(C)C)[C@@H](C)O)C(C)C)[C@@H](C)O)C(=O)N[C@@H](Cc1ccc(O)cc1)C(=O)N1CCC[C@H]1C(=O)O [GRP(1-16)], the “specific binding of 125I-GRP to membranes” value [1] was 299 ± 8 fmole/mg protein and the remaining activity at 10 µM [2] was 102 ± 3%.
